Literature values in patent US20180264094A1, “PERSONALISED IMMUNOGENIC PEPTIDE IDENTIFICATION PLATFORM” (priority 2017, published 2018).

Assays:
[1] = in vivo; cited from earlier work
T cell responses = conditions: percentage of study subjects with positive T cell responses measured in the clinical trials, cited from earlier work

Substance | ADA-related adverse event [1] | Response rate (Clinical Trials) (T cell responses) [%] | Response rate (Clinical Trials) (T cell responses; listed as RMFPNAPYL (HLA- A*0201)) [%]
Cetuximab | IgE, anaphlyaxis | – | –
RMFPNAPYL (additional peptide 12; additional peptide 13) [9 mer peptide vaccine, source antigen WT-1] | – | 100 | 81
rIFN-beta | anaphylaxis | – | –

Read-outs that look alike come from different tables or passages of the source.
